Experimental data: paper PMC9629490 (Acta Crystallographica. Section D, Structural Biology, 2022)

By UniProt entry, the sequences of proteins in these tests, tags left out. Residues count along the entry.
UniProt O75643, 395-2136, chain 1 of 2: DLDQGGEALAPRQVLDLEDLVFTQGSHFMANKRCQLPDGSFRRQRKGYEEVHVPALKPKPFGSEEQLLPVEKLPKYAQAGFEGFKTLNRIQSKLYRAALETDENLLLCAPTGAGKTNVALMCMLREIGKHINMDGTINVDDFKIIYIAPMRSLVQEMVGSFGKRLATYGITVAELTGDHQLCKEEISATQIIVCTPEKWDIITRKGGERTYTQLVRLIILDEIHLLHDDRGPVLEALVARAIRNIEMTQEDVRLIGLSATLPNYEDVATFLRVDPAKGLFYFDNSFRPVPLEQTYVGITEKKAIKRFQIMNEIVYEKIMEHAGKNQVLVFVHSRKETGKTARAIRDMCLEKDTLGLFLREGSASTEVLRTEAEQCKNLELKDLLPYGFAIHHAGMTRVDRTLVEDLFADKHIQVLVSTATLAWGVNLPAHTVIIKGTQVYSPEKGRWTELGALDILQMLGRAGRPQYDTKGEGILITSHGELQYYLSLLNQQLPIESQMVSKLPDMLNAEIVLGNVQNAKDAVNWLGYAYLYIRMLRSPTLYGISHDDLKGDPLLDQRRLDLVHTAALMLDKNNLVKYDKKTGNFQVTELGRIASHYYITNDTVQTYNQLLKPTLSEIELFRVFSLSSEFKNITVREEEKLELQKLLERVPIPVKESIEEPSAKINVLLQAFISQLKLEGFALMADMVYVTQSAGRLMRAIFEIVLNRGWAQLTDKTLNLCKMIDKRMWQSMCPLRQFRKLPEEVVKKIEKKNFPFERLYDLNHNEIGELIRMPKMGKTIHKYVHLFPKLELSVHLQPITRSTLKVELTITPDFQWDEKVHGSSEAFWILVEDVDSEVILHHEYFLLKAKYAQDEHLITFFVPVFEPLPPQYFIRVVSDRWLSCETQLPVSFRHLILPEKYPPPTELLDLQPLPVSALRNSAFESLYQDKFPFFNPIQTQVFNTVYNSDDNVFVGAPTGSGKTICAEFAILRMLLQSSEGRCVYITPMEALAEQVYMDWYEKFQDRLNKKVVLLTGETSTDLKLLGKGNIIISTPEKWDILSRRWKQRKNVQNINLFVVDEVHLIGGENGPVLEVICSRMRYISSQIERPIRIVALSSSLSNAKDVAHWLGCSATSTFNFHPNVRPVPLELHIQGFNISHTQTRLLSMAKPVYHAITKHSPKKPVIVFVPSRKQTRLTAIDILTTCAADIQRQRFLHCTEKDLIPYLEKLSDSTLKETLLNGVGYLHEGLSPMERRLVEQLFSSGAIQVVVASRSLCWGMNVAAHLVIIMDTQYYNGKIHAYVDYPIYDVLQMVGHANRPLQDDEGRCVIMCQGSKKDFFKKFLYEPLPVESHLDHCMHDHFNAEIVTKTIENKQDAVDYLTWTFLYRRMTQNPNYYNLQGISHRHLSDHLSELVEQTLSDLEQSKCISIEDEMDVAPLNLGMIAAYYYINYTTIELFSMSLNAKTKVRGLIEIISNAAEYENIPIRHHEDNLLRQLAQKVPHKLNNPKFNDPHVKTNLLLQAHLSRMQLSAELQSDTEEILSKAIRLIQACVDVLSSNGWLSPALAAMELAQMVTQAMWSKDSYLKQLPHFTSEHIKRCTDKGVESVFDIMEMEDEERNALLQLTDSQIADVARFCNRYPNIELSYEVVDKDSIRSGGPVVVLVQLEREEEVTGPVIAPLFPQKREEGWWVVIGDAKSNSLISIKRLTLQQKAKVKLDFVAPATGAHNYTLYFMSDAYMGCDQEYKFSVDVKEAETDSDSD

Molecular target: T1, human SNRNP200^395-2136–PRPF8^RH-JM complex (human, UniProt O75643 395-2136; Q6P2Q9 1760-2335)
T1 construct: human PRPF8 C-terminal fragment with the RH and JM domains, residues 1760-2335, as m9; source: Sf9 cells (baculovirus), co-produced, purified (Ni-NTA, TEV cleavage, second Ni-NTA, SEC); not shown: His10, N-terminal, cleaved
Assay: SEC; analytical SEC, Superdex 200 Increase PC3.2/30, 20 mM Tris-HCl pH 7.5, 250 mM NaCl, 0.5 mM DTT; proteins mixed in equimolar ratios, 30 min on ice; fractions analyzed by SDS-PAGE
Conditions: both partners purified

binding result: binds
B1: human AAR2 (natural protein, UniProt Q9Y312 1-384, looked up)
chain: MAAVQMDPELAKRLFFEGATVVILNMPKGTEFGIDYNSWEVGPKFRGVKMIPPGIHFLHYSSVDKANPKEVGPRMGFFLSLHQRGLTVLRWSTLREEVDLSPAPESEVEAMRANLQELDQFLGPYPYATLKKWISLTNFISEATVEKLQPENRQICAFSDVLPVLSMKHTKDRVGQNLPRCGIECKSYQEGLARLPEMKPRAGTEIRFSELPTQMFPEGATPAEITKHSMDLSYALETVLNKQFPSSPQDVLGELQFAFVCFLLGNVYEAFEHWKRLLNLLCRSEAAMMKHHTLYINLISILYHQLGEIPADFFVDIVSQDNFLTSTLQVFFSSACSIAVDATLRKKAEKFQAHLTKKFRWDFAAEPEDCAPVVVELPEGIEMG
notes: human AAR2; The cleavage of the tag follows from the sentence that AAR2 1-364 was purified as AAR2 but with omission of the TEV cleavage step; also called WT AAR2; hAAR2; source: pFL vector, codon-optimized synthetic gene; purified, obtained as described previously (Santos et al., 2015); not shown: His10, N-terminal, cleaved
